Only a part is listed here, and it is no random draw. Some tests of the compounds listed are not included; inactive here does not mean inactive elsewhere. Calls of active or inactive are those of the source.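 The calls were made as follows: active = lowest replicate activity score at least 50, where 100 means six control SD above control mean; inconclusive = lowest score under 50 but half or more replicates reach 50; inactive = the rest.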

The experiment can be described thus: polyadenylation inhibitors in yeast reporter cells, primary screen, luminescence, S. cerevisiae (AID 1875).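 Also: yeast exposed to compound for 9 h at 30 °C; higher score means more reporter readthrough which indicates perturbed polyadenylation.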 The settings on record: S. cerevisiae SKY197-pL101 polyadenylation reporter, beta-gal luminescence; at 12 µM; stronger effect = higher value; efflux-impaired pdr1/pdr3 knockout yeast; score 100 = 6 SD above DMSO.
As for `O=C(NCC1(N2CCCCC2)CCCCC1)c1cccc(Cl)c1`, the activity score is inactive: 4.14%.

Take `COc1ccc(Cl)cc1C(=O)NCC1(N(C)C)CCCCC1`: the activity score was inactive: -6.19%.

On to `COc1cccc(C(=O)NCC2(N3CCCCC3)CCCCC2)c1`, for which the activity score is inactive: 2.52%.

Turning to `COc1cc(C(=O)NCC2(N(C)C)CCCCC2)c([N+](=O)[O-])cc1OC`, the activity score is inactive: -17.9%.

On to `CN(C)C1(CNC(=O)c2ccc(Br)cc2)CCCCC1`, for which the activity score is inactive: -2.83%.

For `CC(C)Oc1ccc(C(=O)NCC2(N(C)C)CCCCC2)cc1`, the activity score was inactive: 6.27%.

Consider `CN(C)c1cccc(C(=O)NCC2(N(C)C)CCCCC2)c1`, for which the activity score is inactive: 2.98%.

For the compound `COc1ccc(Br)c(C(=O)NCC2(N3CCCCC3)CCCCC2)c1`, the activity score was inactive: 11.1%.

For `O=C(OC1CN2CCC1CC2)C(CO)(c1ccccc1)c1ccccc1` (centres undefined), the activity score was inactive: -20.7%.

Take `Cc1ccc(C(=O)NCC2(N3CCCCC3)CCCCC2)cc1`: the activity score is inactive: -4.56%.

Turning to `COc1cc(SC)ccc1C(=O)NCC1(N(C)C)CCCCC1`, the activity score is inactive: 3.35%.

As to `CCN(CC)CC(C)C(C)OC(=O)C(O)(c1ccccc1)c1ccccc1` (centres undefined), the activity score was inactive: -7.24%.

Take `CC(C)N1C(=O)CC2(CCN(CCOC(=O)C(O)(c3ccccc3)c3ccccc3)CC2)C1=O`: the activity score was inactive: 10%.

In the case of `CN1[C@@H]2CC[C@H]1CC(OC(=O)C(O)(c1ccccc1)c1ccccc1)C2` (some centres undefined), the activity score was inactive: 1.28%.

On to `O=C(NCC1(N2CCCCC2)CCCCC1)c1cc([N+](=O)[O-])ccc1Cl`, for which the activity score was inactive: 4.33%.

For `COc1ccc(C(=O)NCC2(N(C)C)CCCCC2)cc1`, the activity score is inactive: 12.5%.

Consider `O=C(NCC1(N2CCCCC2)CCCCC1)c1cccc(Br)c1`, for which the activity score is inactive: -4.22%.

Consider `Cc1cc(C(=O)NCC2(N3CCCCC3)CCCCC2)ccc1[N+](=O)[O-]`, for which the activity score was inactive: -4.67%.

Turning to `CCN1CCCC(OC(=O)C2(O)c3ccccc3C=Cc3ccccc32)C1` (centres undefined), the activity score was inactive: 4.6%.

`O=C(NCC1(N2CCCCC2)CCCCC1)c1cc(F)c(F)cc1Cl`: the activity score is inactive: 7.24%.

Regarding `C=CCN1CCN(CCOC(=O)C(O)(c2ccccc2)c2ccccc2)CC1`, the activity score is inactive: 4.82%.

On to `CN(C)C1CCCC1OC(=O)C(O)(c1ccccc1)c1ccccc1` (centres undefined), for which the activity score is inactive: 8.63%.

On to `CN(C)c1ccc(C(=O)NCC2(N(C)C)CCCCC2)cc1`, for which the activity score was inactive: -16%.

With `Cc1ccccc1C(=O)NCC1(N2CCCCC2)CCCCC1`, the activity score is inactive: 14.2%.

For the origin of these results see PubChem BioAssay AID1875 (Broad Institute, 2009).
